Source: PubChem BioAssay (Broad Institute)
This is a sample that favours compounds with a hit; in the whole collection about 1.5% have one here.
Casp6 inh: human caspase-6 inhibitors, primary screen, biochemical, VEID-R110 fluorescence, single point, set 2. P55212. purified caspase-6, Z-VEID-R110 cleavage fluorescence. AID 686996, 2013. actives 0.53% (n = 350,000). inhibition, % at 12.5 µM;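 active = mean inhibition across replicates at least about 35%, with every replicate also reaching that limit, limit read from the data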;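 also: 0% = median of neutral control wells and 100% = no fluorescence left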
RAD52 inh: RAD52 DNA annealing inhibitors, primary screen, biochemical, FRET, single point, set 2 | DNA repair protein RAD52 homolog (Homo sapiens), P43351 | recombinant RAD52 DNA annealing, FRET fluorescence | inhibition, % at 18.7 µM | actives 0.46% (n = 360,000);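 active = every replicate showing at least 50% inhibition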
PglD DTNB: C. jejuni PglD acetyltransferase inhibitors, primary screen, biochemical, DTNB colorimetric, single point | UDP-N-acetylbacillosamine N-acetyltransferase PglD (Campylobacter jejuni) | purified PglD enzyme, DTNB colorimetric CoA detection | inhibition, % at 12.5 µM | actives 0.098% (n = 360,000); in the data active = inhibition above about 16%, passing the limit was not always enough
UUG fidelity: modulators of start codon recognition fidelity in yeast; S. cerevisiae UUG-firefly luciferase reporter, luminescence/redox ratio; AID 602363; 350,000 tested, 0.13% active; activity score, % at 18.7 µM;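 active = replicate mean at a twofold rise or more, about +100% in these data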;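 also: firefly luciferase made from a UUG start codon reports start codon fidelity; reporter light over untreated wells divided by growth signal over untreated wells; some hits fall short of that in this replicate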
RAD54 inh: inhibitors of human RAD54 branch migration, primary screen, biochemical, fluorescence, single point; inhibition, % at 10.4 µM; actives 0.14% (n = 360,000); DNA repair and recombination protein RAD54-like (Homo sapiens), Q92698; AID 602329, 2012; RAD54 Holliday junction branch migration, FAM/BHQ fluorescence;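 active = mean normalized replicate activity at least 40 and at least half of replicates scoring 40 or more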;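 also: 0% = median of neutral control wells and 100% = median of positive control wells; inhibitors cause a drop in the FAM fluorescence signal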
GSIS activator: GLuc luminescence reporter in INS-1E cells, primary screen for activators of glucose-dependent secretion of insulin. INS-1E GLuc reporter insulin secretion, 2-3 h. activation, % at 16.6 µM. actives 0.61% (n = 370,000). AID 743287, 2014;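 active = lowest replicate activation of at least 40%, so every replicate reaches that level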;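 also: 0% = median of neutral control wells and 100% = median of IBMX positive control wells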
Numbers without * were called inactive; nt = no result.

Keys: A = Casp6 inh; B = RAD52 inh; C = PglD DTNB; D = UUG fidelity; E = RAD54 inh; F = GSIS activator
1	COc1ccc2c3c(n(C)c2c1)[C@H](CO)NCC31CCN(Cc2ccc(Cl)cc2)CC1
  A: nt | B: nt | C: nt | D: nt | E: nt | F: 8.7
2	COc1ccc2c3c(n(C)c2c1)[C@H](CO)NCC31CCN(Cc2ccc(-c3ccccn3)cc2)CC1
  A: nt | B: 82.3* | C: nt | D: nt | E: nt | F: 19.4
3	COc1ccc2c3c(n(C)c2c1)[C@@H](CO)NCC31CCN(Cc2ccc(-c3ccccn3)cc2)CC1
  A: nt | B: 83.4* | C: nt | D: nt | E: nt | F: 3.9
4	COc1ccc2c3c(n(C)c2c1)[C@@H](CO)NCC31CN(Cc2ccc(-c3ccccn3)cc2)C1
  A: 0.4 | B: 95.9* | C: nt | D: nt | E: nt | F: 31.9
5	CC(=O)N1c2ccc(S(=O)(=O)N3CCCC(C(=O)N4CCC(C)CC4)C3)cc2CC1C (configuration not stated)
  A: -0.2 | B: 2.7 | C: 3.4 | D: -9.5 | E: -4.6 | F: -21.0
6	CC(CN(C)Cc1ccccc1)OC(=O)c1cccs1 (configuration not stated)
  A: nt | B: nt | C: -3.9 | D: -10.5 | E: -3.5 | F: nt
7	CC(CN(C)Cc1ccccc1)OC(=O)c1ccccc1F (configuration not stated)
  A: nt | B: nt | C: 5.9 | D: -19.9 | E: 4.4 | F: 48.7*
8	COc1cc2[nH]c3c(N4CCN(c5ccc(Cl)cc5)CC4)ncnc3c2cc1OC
  A: nt | B: nt | C: 0.5 | D: -7.3 | E: 6.2 | F: 15.0
9	COc1cc2[nH]c3c(Cl)ncnc3c2cc1OC
  A: nt | B: nt | C: -4.8 | D: -7.5 | E: 39.8 | F: 53.6*
10	CN1C(C)(C)c2ccccc2OS1(=O)=O
  A: -1.2 | B: -2.9 | C: 6.0 | D: -6.1 | E: 0.1 | F: -5.5
11	c1ccc2nc3c(nc2c1)c1ccccc1n3CCN1CCOCC1
  A: nt | B: nt | C: nt | D: nt | E: nt | F: 71.6*
12	Cc1nc2ccccc2c(=O)n1CCCN1CCOCC1
  A: -2.1 | B: -6.1 | C: nt | D: nt | E: nt | F: 40.3*
13	CCCn1c2ccccc2c2nnc(SCCN3CCOCC3)nc21
  A: 42.7* | B: 14.3 | C: -1.1 | D: -20.2 | E: 4.1 | F: nt
14	Cc1nc2ccccc2n1CCN1CCOCC1
  A: -0.2 | B: -11.2 | C: -5.1 | D: 0.0 | E: 7.8 | F: 2.6
15	OC[C@@H]1[C@@H](c2ccc(-c3ccccc3)cc2)[C@@H]2CN(CCC(F)(F)F)CCCCN12
  A: nt | B: -11.8 | C: -0.3 | D: -6.8 | E: -5.0 | F: -34.2
16	O=C(NCc1ccccc1Cl)c1ccc2c(=O)n(CCCN3CCCC3=O)c(=S)[nH]c2c1
  A: nt | B: nt | C: -2.4 | D: 33.9 | E: -3.7 | F: nt
17	N#C[C@H]1[C@@H](c2ccc(-c3cccc(F)c3)cc2)[C@H](CO)N1C(=O)NC1CCCCC1
  A: -2.3 | B: -73.1 | C: nt | D: nt | E: nt | F: -32.4
18	O=C(CSc1n[nH]c(-c2ccco2)n1)Nc1ccccc1F
  A: 46.5* | B: 1.3 | C: -1.3 | D: 3.2 | E: -3.8 | F: 5.8
19	Cc1ccc(C)c(NC(=O)Nc2ccc3c(c2)OCO3)c1
  A: -0.2 | B: -9.7 | C: 6.0 | D: -7.2 | E: 5.9 | F: nt
20	O=C(O)/C=C\c1cccc(-n2nnnc2SCc2ccccc2F)c1
  A: -0.8 | B: -16.8 | C: 4.7 | D: -7.2 | E: -6.7 | F: 52.2*

#21 O=C(O)c1ccc(-n2nnnc2SCc2ccccc2F)cc1
#22 COC(=O)/C(=C/N(C)C)C(=O)N1CCN(c2ccc(Cl)c(Cl)c2)CC1
#23 COc1ccc(OC)c(NC(=O)Nc2ccc(O)c3ccccc23)c1
#24 COc1ccc(CN(C)C(=O)Cn2ccsc2=N)cc1OC
#25 COc1ccc(CN(C)C(=O)Cn2cc(C)c(=O)[nH]c2=O)cc1OC
#26 COc1ccc(-c2cc(=O)c3cc(C)ccc3[nH]2)cc1
#27 COc1cc2[nH]c(-c3ccc(C)cc3)cc(=O)c2cc1OC
#28 Cc1ccc(NCc2ccccc2)cc1
#29 S=c1[nH]nc2ccccn12
#30 Cc1ccn2c(=S)[nH]nc2c1
#31 O=C(Nc1ccccc1)Nc1nnc(-c2cccs2)s1
Screen / compound no.	21	22	23	24	25	26	27	28	29	30	31
Casp6 inh	-1.7	0.5	53.7*	-1.1	-1.7	0.7	-1.4	0.3	4.8	36.6*	nt
RAD52 inh	-15.6	-10.8	-0.3	-11.6	3.4	-19.4	-9.1	-16.0	-7.0	-40.0	nt
PglD DTNB	3.2	nt	-18.8	-9.8	1.4	6.5	0.4	nt	-0.5	-3.5	-0.6
UUG fidelity	-1.8	nt	-17.7	4.1	-8.1	-1.8	-16.6	nt	-32.5	-16.9	-6.4
RAD54 inh	10.8	nt	-7.1	-4.2	-6.2	-13.2	0.0	nt	12.9	7.1	1.0
GSIS activator	61.3*	-4.1	nt	3.5	43.6*	12.4	57.3*	6.7	17.1	3.6	69.2*

Whole records as entered above. Screens in order: Casp6 inh	RAD52 inh	PglD DTNB	UUG fidelity	RAD54 inh	GSIS activator
N#C[C@H]1[C@@H](c2ccc(-c3cccc(F)c3)cc2)[C@H](CO)N1C(=O)NC1CCCCC1 reads -2.3	-73.1	nt	nt	nt	-32.4
COc1ccc2c3c(n(C)c2c1)[C@@H](CO)NCC31CCN(Cc2ccc(-c3ccccn3)cc2)CC1 reads nt	83.4*	nt	nt	nt	3.9
Cc1ccn2c(=S)[nH]nc2c1 reads 36.6*	-40.0	-3.5	-16.9	7.1	3.6
